Assay results taken from publication PMC7723054.
The other results are listed elsewhere or left out.

T1: LIN28A (human?, UniProt Q9H9Z2 1-209)
T1 sequence: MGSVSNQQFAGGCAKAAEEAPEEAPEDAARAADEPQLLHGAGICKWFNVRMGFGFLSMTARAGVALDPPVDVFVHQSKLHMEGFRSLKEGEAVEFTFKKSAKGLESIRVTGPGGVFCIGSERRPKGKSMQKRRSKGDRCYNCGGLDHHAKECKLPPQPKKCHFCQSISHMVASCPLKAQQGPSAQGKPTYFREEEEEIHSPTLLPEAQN

T2: CIRBP (Homo sapiens, UniProt Q14011 1-172)
T2 sequence: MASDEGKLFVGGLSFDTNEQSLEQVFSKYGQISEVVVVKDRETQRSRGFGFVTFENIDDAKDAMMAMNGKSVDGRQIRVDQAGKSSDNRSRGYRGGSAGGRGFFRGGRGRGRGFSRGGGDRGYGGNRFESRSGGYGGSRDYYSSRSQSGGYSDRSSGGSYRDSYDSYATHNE

T3: DHX36 (Homo sapiens, UniProt Q9H2U1 1-1008)
T3 sequence: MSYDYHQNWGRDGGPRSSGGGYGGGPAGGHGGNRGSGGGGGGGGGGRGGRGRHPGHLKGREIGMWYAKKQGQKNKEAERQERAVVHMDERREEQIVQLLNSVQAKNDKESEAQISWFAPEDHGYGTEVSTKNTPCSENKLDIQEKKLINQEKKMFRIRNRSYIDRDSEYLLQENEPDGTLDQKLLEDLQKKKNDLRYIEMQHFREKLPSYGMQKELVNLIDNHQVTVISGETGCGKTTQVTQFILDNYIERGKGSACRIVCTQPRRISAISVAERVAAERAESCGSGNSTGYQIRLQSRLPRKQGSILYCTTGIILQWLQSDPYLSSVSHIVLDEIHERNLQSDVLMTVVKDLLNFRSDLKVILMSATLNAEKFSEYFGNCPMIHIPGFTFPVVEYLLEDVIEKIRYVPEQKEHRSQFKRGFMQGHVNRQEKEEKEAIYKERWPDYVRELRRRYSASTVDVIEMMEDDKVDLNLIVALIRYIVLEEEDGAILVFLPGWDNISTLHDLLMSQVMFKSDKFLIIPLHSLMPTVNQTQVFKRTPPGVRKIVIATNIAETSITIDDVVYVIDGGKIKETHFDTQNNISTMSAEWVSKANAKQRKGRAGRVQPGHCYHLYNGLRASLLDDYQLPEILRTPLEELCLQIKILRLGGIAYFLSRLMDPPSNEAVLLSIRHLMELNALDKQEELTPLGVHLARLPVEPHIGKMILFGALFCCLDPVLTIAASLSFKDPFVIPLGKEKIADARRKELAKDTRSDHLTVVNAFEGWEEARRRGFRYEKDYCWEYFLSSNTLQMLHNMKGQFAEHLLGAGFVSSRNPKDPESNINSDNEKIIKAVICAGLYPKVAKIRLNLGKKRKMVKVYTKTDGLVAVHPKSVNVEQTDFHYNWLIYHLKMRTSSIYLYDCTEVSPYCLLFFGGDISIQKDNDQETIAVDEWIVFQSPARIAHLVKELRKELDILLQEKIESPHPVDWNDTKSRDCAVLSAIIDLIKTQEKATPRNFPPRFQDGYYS

B1: hsa-mir-499a (structured_RNA)
RNA: GGGACAGGCAGGUGCUUUACCGAUUAAGGGUGUACGAAGUUUCAGCUGUUUAACUCCUCUCCACGUGAACAGCUGAAGCUUCGUGCAC
B2: hsa-mir-6511b-1_6511b-2_6511a-2_6511a-3_6511a-1_6511a-4 (structured_RNA)
RNA: GGGACACAUAUAGACCGGGUCCAAGUAAGGUGUACGAAGUUUCAGCGACAGGGCAGAGGGUUGCGCCCCCUCGCUGAAGCUUCGUGCAC
B3: hsa-mir-497 (structured_RNA)
RNA: GGGAGAGAAAGUAGAAUCCCGGGUAGCAGGUGUACGAAGUUUCAGCUUUGUACGGCACUGUGGCCACGUCCAAAGCUGAAGCUUCGUGCAC
B4: hsa-mir-7112 (structured_RNA)
RNA: GGGAAAGUAUCGUGAGCCCUCAAAGCUGGGUGUACGAAGUUUCAGCCCUGCAGGUGAGAGCGGGAACACCUGCAUGCUGAAGCUUCGUGCAC
B5: hsa-mir-1227 (structured_RNA)
RNA: GGGAAACGUAGGAACCGACCGCUAGCUUGGUGUACGAAGUUUCAGCGUGGUGGGCACUGCUGGGGUGGGCACAGCAGCCAUGCAGAGCGGGCAUUUGACCCCGUGCCACCCUUUUCCCCAGGCUGAAGCUUCGUGCAC
B6: hsa-mir-7162 (structured_RNA)
RNA: GGGAACUCGAUCGCGCGAUGAUAGCAAAGGUGUACGAAGUUUCAGCGCUGAACCCCUGCCCCUGGAGCCCCCAGCAGGGCCCUCGCUGAAGCUUCGUGCAC
B7: hsa-mir-4516 (structured_RNA)
RNA: GGGAAAGUCGCGGGAUUAUAGUAAGCAUGGUGUACGAAGUUUCAGCGGGCAGGGAGGGCAGGGCAGGCUCUGGGGUGGGGGGUCUGUGAGUCAGCCACGGCUCGCUGAAGCUUCGUGCAC
B8: hsa-mir-6891 (structured_RNA)
RNA: GGGACAGUAAUCUUUUAGAGCGAGCCGGGGUGUACGAAGUUUCAGCAGGGGUCAUAUCUCUUCUCAGGGAAAGCAGGAGCCCUUCAGCAGGGUCAGGGCCCCUGCUGAAGCUUCGUGCAC
B9: hsa-mir-4300 (structured_RNA)
RNA: GGGACCACCUCGGGGAUUACCUACUGUCGGUGUACGAAGUUUCAGCAUCAGCAGAGACAUGAGGUGAUCAAAAACCUUUUUUCAAAGCAGUGGGGCUGAAGCUUCGUGCAC
B10: hsa-mir-548q (structured_RNA)
RNA: GGGAAGGCGGUGACCAUGUGUUCGGAAGGGUGUACGAAGUUUCAGCGCGGUUUUUGCCAUUACUUUUCAUUUUUACCAUUAAAAGUAAUGGCAAAAAGCAUGCUGAAGCUUCGUGCAC
B11: hsa-mir-5696 (structured_RNA)
RNA: GGGAAUUCGCAUCCCUUGGCACCUGAUCGGUGUACGAAGUUUCAGCUGCCUACUACUGAUGACAUACAAUGUAAGUGCUCAUUUAGGCGGCUGAAGCUUCGUGCAC
B12: hsa-mir-642b (structured_RNA)
RNA: GGGAAAAUGAGCCCUUACCCCUAAAGCCGGUGUACGAAGUUUCAGCGUCUUGAUCCCCCACCCCAAGACGCUGAAGCUUCGUGCAC
B13: NEAT1_ParasoR_ID43 (structured_RNA)
RNA: GGGAAUACACCACUCGUCCUUGUGUGCUGGUGUACGAAGUUUCAGCUGGUCAUAUAUAUGAGUUCUACAGUAGUGAAGUCUGAGAUUUUACUACACCUUCCACUUAUGUGGUCCCACACCAGCUGAAGCUUCGUGCAC
B14: hsa-mir-27b (structured_RNA)
RNA: GGGAAUCUAGAUGUAUCGUAAGCACAGAGGUGUACGAAGUUUCAGCUGAACAGUGAUUGGUUUCCGCUUUGUUCAGCUGAAGCUUCGUGCAC
B15: hsa-mir-5692b (structured_RNA)
RNA: GGGAAUGGACAGAUGCGGCAGGUCGAUAGGUGUACGAAGUUUCAGCGUGUUCACACAUAAUGUGUACACCAUGUGUGUACACGCUGAAGCUUCGUGCAC
B16: hsa-mir-6876 (structured_RNA)
RNA: GGGAUACAAUGCAGGCCAAGCAGCAACCGGUGUACGAAGUUUCAGCAGUUCAGGAGGUGGCACUGCUGUGUGUGAGCUGCUGAAGCUUCGUGCAC
B17: hsa-mir-449c (structured_RNA)
RNA: GGGAUACGACGGAGCACGGACCUUCUUGGGUGUACGAAGUUUCAGCGCGGCUGUUAAUGAUUUUAACAGUUGCGCUGAAGCUUCGUGCAC
B18: hsa-mir-1306 (structured_RNA)
RNA: GGGAAAACCUACGGUAUUGGAGUUGUCUGGUGUACGAAGUUUCAGCACGUCCAGUGGUGCAGAGGUAAUGGACGUGCUGAAGCUUCGUGCAC
B19: hsa-let-7c (structured_RNA)
RNA: GGGAACGGGUCAACGGCUAGAUGUCAAAGGUGUACGAAGUUUCAGCAUGGUUUAGAGUUACACCCUGGGAGUUAACUGUGCUGAAGCUUCGUGCAC
B20: hsa-mir-3925 (structured_RNA)
RNA: GGGCAUGAUUGGUCCCCAUGACUAGCAUGGUGUACGAAGUUUCAGCGAGCCUGUCACAUCUCCAGACUCGCUGAAGCUUCGUGCAC
B21: hsa-mir-8083 (structured_RNA)
RNA: GGGAACUAGGCAUUACGGUAACGACAAGGGUGUACGAAGUUUCAGCAACUGUGCGGCCGGCCACACCGUCACACCGGGUGCUGAAGCUUCGUGCAC
B22: hsa-mir-5688 (structured_RNA)
RNA: GGGAAUAAUUUCCUGUCCCACUAGCCACGGUGUACGAAGUUUCAGCAUUAUGUUUUGGACAUAGAAACAUAACGCUGAAGCUUCGUGCAC

These binders were tested against U1A (Homo sapiens, UniProt P09012) (assay: FOREST: bead pull-down of RNA structure library v1, barcode microarray; U1A/LIN28A: 20 mM HEPES pH 7.5, 80 mM KCl, 20 mM NaCl, 10% glycerol, 2 mM DTT, 0.1 ug/uL BSA, 4 C; BG4/CIRBP/DHX36: 10 mM Tris-HCl pH 7.5, 100 mM KCl (or LiCl),; high values mean tight binding).

Binder | binding signal [z-score]
B1 | 0.755
B2 | 0.778
B3 | 0.749
B4 | 0.765
B5 | 0.795
B6 | 0.752
B7 | 0.775
B8 | 2.29
B9 | 0.745
B10 | 0.772
B11 | 0.778
B12 | 0.766
B13 | 0.775
B14 | 0.743
B15 | 0.783
B16 | 0.752
B17 | 0.758
B18 | 0.755
B19 | 0.772
B20 | 2.29
B21 | 0.782
B22 | 0.736

What follows are binders tested against T1, LIN28A in the same assay as above.

Binder | binding signal [z-score]
B1 | 0.0381
B2 | 0.706
B3 | 1.04
B4 | 1.08
B5 | -0.223
B6 | -0.609
B7 | 0.628
B8 | 0.89
B9 | 0.326
B10 | 0.252
B11 | -2.02
B12 | -2.04
B13 | 0.591
B14 | 1.72
B15 | 0.805
B16 | 1.43
B17 | 0.49
B18 | 1.44
B19 | 2.22
B20 | -1.52
B21 | 1.34
B22 | 0.288

The binders below were run against T2, CIRBP in the same assay as above.

Binder | binding signal [z-score]
B1 | -0.00588
B2 | -0.637
B3 | 1.44
B4 | 0.0924
B5 | -0.238
B6 | -0.138
B7 | 5.32
B8 | 1.1
B9 | -0.747
B10 | 1.21
B11 | -1.34
B12 | 0.127
B13 | -0.759
B14 | 1.5
B15 | 0.0476
B16 | 0.772
B17 | -0.184
B18 | 0.398
B19 | 1.06
B20 | -0.857
B21 | 1.36
B22 | -0.636

What follows are binders tested against T3, DHX36 in the same assay as above.

Binder | binding signal [z-score]
B1 | -0.235
B2 | 0.52
B3 | 1.35
B4 | -0.129
B5 | 0.982
B6 | 0.256
B7 | 5.33
B8 | 0.384
B9 | -0.542
B10 | 1.23
B11 | -1.07
B12 | -0.334
B13 | 0.571
B14 | -0.104
B15 | 2.3
B16 | 1.03
B17 | -0.518
B18 | 0.475
B19 | 2.07
B20 | -1.43
B21 | 0.638
B22 | -0.964
